In ChEMBL document CHEMBL4145694, “Potent and Selective Tetrahydroisoquinoline Kappa Opioid Receptor Antagonists of Lead Compound (3 R)-7-Hydroxy- N-[(1 S)-2-methyl-1-(piperidin-1-ylmethyl)propyl]-1,2,3,4-tetrahydroisoquinoline-3-carboxamide (PDTic)” (J Med Chem, 2018) one finds Ratio Ke data, which are given here for one compound.

For assay [1], the species on record is Homo sapiens. The experiment in a line: Selectivity index, ratio of Ke for antagonist activity at human mu-opioid receptor expressed in CHO cell membranes to Ke for antagonist activity at human kappa-opioid receptor expressed in CHO cell membranes. The format is cell-based.
The species entered for assay [2] is Homo sapiens. The experiment in a line: Selectivity index, ratio of Ke for antagonist activity at human delta-opioid receptor expressed in CHO cell membranes to Ke for antagonist activity at human kappa-opioid receptor expressed in CHO cell membranes. The format is cell-based.

As for `CC(C)[C@@H](CN1CCCCC1)NC(=O)[C@H]1Cc2ccc(O)cc2CN1`, the results for the Ratio Ke in the assay filed under Homo sapiens [1] and in the assay filed under Homo sapiens [2] were 21 and more than 441, respectively.
